Consider two molecules from ChEMBL document CHEMBL1773004, “1-[(1-methyl-1H-imidazol-2-yl)methyl]-4-phenylpiperidines as mGluR2 positive allosteric modulators for the treatment of psychosis” (J Med Chem, 2011).

Protein sequences, listed by entry. Tags and fused reporters are not part of them.
UniProt P61169, whole entry: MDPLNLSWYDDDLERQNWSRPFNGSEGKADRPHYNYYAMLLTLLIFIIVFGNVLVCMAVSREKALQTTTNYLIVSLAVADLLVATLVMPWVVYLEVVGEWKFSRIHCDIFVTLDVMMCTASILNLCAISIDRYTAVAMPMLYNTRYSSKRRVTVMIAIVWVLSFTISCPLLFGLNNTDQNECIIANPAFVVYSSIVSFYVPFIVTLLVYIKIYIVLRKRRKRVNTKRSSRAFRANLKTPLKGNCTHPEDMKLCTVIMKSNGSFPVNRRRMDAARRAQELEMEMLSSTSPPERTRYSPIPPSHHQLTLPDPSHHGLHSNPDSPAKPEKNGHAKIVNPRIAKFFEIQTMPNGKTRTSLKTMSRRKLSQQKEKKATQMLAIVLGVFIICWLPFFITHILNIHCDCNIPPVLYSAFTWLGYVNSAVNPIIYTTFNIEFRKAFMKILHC

Each structure is given as a SMILES string.

The experiment addresses D(2) dopamine receptor (Rattus norvegicus, UniProt P61169). In words: Displacement of [3H]spiperone from dopamine D2 receptor in rat corpus striatum by beta plate scintillation counting. The experiment is classed as tissue-based. For orientation: Displacement assays read how much labelled ligand stays bound in the presence of the test substance.

Take `Cn1c(CN2CCC(c3ccccc3F)CC2)nc2ccccc21`: affinity was put at a Ki of 0.093 µM.
As for `Cn1c(CN2CCC(c3ccc(Cl)cc3F)CC2)nc2ccccc21`, the Ki – broadly, the dissociation constant of the complex between target and ligand, obtained from inhibition or displacement – is 0.091 µM.
